Read-outs that look alike come from different tables or passages of the source.
Assays:
CYP2C19 [1] = target: T1, CYP2C19 (Homo sapiens, UniProt P33261); design: method as in Spaggiari et al., 2014; conditions: substrate Omeprazole (2C19); ref Spaggiari et al., 2014; read-out: Literature IC50, CYP2C19; cited from earlier work
CYP2C19 [2] = target: T1, CYP2C19; test: Single substrate CYP450 inhibition method (human liver microsomes); assay type: in vitro ADME; conditions: single substrate Omeprazole, HLM
CYP2C19 [3] = target: T1, CYP2C19; test: CYP450 cocktail inhibition assay (LC-MS/MS, human liver microsomes)

By UniProt entry, the sequences of proteins in these tests, tags left out.
UniProt P33261, whole entry: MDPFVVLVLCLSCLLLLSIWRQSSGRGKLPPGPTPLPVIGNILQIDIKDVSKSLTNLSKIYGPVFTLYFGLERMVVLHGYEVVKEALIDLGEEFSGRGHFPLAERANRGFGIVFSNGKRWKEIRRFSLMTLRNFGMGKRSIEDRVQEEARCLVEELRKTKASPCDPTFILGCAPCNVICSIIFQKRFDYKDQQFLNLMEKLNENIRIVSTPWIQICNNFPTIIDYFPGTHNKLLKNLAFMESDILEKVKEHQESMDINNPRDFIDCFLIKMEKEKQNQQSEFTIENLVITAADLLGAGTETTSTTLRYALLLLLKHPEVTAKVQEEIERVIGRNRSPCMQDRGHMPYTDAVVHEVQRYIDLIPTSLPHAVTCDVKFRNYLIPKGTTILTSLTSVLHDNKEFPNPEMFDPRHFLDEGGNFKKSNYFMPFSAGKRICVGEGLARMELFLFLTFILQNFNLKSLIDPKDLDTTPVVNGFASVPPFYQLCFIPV

Which IC50 (CYP2C19 [1]) does the source give for `OC(Cn1cncn1)(Cn1cncn1)c1ccc(F)cc1F` [Fluconazole] here?
The IC50 was 0.634 to 5.9 µM.

What about the IC50 (CYP2C19 [2]) of the same compound?
The IC50 was 9.43 µM.

What about the IC50 (CYP2C19 [3]) of the same compound?
Its IC50 is 6.54 µM.
